From patent US12286452B2, “Amphiphilic aminoglycoside connexin hemichannel inhibitors” (Texas Tech University System, priority 2018, dated 2025)
pIC50: −log10 of the molar value.

Protein sequences, listed by entry. Tags and fused reporters are not part of them.
UniProt P17302, whole entry: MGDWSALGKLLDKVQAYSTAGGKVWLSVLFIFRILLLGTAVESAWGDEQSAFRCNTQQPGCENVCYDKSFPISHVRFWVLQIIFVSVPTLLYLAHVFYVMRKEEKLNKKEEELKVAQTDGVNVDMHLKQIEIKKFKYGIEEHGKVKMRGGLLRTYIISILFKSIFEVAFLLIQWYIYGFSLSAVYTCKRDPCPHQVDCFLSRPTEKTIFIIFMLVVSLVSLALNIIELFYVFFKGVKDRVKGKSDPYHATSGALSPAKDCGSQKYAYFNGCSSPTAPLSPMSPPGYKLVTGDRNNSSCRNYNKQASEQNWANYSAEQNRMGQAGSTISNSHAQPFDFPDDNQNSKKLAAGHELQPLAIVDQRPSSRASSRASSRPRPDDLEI

Tests used:
human Cx26 HCs = human Cx26 HCs (Homo sapiens, UniProt P29033); assay: Cx26-dependent growth complementation assay in E. coli LB2003; format: cell-based; details: for Cx26 (% inhibition): Table 6, tested form: HCl
Cx43 HCs = Cx43 HCs (Homo sapiens, UniProt P17302); assay: Cx43-dependent growth complementation assay in E. coli LB2003; format: cell-based; details: IC50 Cx26/IC50 Cx43

Row | pIC50 (human Cx26 HCs; read-out: Cx26 IC50, 4″,6″-disubstituted AKs, Table 5) | Cx43/Cx26 Selectivity (Cx43 HCs; Table 5) | SMILES | Cx26 (% inhibition) (human Cx26 HCs; 15 μM) | Cx26 (% inhibition) (human Cx26 HCs; 50 μM) | Cx43/Cx26 Selectivity (Cx43 HCs; Table 7, tested form: HCl)
1 | 5.18 | 1.23 | NCC1OC(OC2C(N)CC(N)C(OC3OC(COCc4cccc(-c5ccccc5)c4)C(OCc4cccc(-c5ccccc5)c4)C(N)C3O)C2O)C(O)C(O)C1O (centres unmarked) [Compound 16, 4″,6″-Di-O-(3-phenylbenzyl)-kanamycin] | – | – | –
2 | – | – | NCC1OC(OC2C(N)CC(N)C(OC3OC(COc4ccc(-c5nc6ccccc6[nH]5)cc4)C(O)C(N)C3O)C2O)C(O)C(O)C1O (centres unmarked) | 83.1 ± 2.1% | 85.5 ± 1.7% | 0.34
